For one experiment, the target named is Carbonic anhydrase 9 (Homo sapiens, UniProt Q16790). In words: Inhibition of recombinant human CA-IX incubated for 15 mins by stop-flow method.
The target of another experiment is Carbonic anhydrase 7 (Homo sapiens, UniProt P43166). In words: Inhibition of recombinant human CA-VII incubated for 15 mins by stop-flow method.
A further experiment concerns the target Carbonic anhydrase 13 (Homo sapiens, UniProt Q8N1Q1). In words: Inhibition of recombinant human CA-XIII incubated for 15 mins by stop-flow method.
For a further experiment, the target named is Carbonic anhydrase 1 (Homo sapiens, UniProt P00915). In words: Inhibition of recombinant human CA-I incubated for 15 mins by stop-flow method.
The next experiment addresses Carbonic anhydrase 12 (Homo sapiens, UniProt O43570). Briefly: Inhibition of recombinant human CA-XII incubated for 15 mins by stop-flow method.
In a further experiment the target is Carbonic anhydrase 4 (Homo sapiens, UniProt P22748). Briefly: Inhibition of recombinant human CA-IV incubated for 15 mins by stop-flow method.
The next experiment has as its target Carbonic anhydrase 14 (Homo sapiens, UniProt Q9ULX7). Briefly: Inhibition of recombinant human CA-XIV incubated for 15 mins by stop-flow method.
The next experiment has as its target Carbonic anhydrase 2 (Homo sapiens, UniProt P00918). Briefly: Inhibition of recombinant human CA-II incubated for 15 mins by stop-flow method.
Experiment [1] deals with Carbonic anhydrase 5A, mitochondrial (Homo sapiens, UniProt P35218). Briefly: Inhibition of recombinant human CA-VA incubated for 15 mins by stop-flow method.
In experiment [2] the target is Kappa-type opioid receptor (Cavia porcellus, UniProt P41144). In words: Inhibition of KOR in guinea pig brain membrane by liquid scintillation counter analysis.

Chains of the proteins cited; added tags and fusions are not shown. Lines headed by an entry give the natural chain unless they say otherwise; changes in a name come on top. Residues count along the entry.
UniProt P43166: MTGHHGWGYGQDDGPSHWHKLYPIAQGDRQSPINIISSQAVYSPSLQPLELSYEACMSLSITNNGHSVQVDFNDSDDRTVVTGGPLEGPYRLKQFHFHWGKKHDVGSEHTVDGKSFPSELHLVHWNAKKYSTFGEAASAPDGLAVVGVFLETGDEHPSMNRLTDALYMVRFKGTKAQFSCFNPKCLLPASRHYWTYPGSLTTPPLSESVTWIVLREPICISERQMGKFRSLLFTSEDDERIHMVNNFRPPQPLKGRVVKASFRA
UniProt Q8N1Q1: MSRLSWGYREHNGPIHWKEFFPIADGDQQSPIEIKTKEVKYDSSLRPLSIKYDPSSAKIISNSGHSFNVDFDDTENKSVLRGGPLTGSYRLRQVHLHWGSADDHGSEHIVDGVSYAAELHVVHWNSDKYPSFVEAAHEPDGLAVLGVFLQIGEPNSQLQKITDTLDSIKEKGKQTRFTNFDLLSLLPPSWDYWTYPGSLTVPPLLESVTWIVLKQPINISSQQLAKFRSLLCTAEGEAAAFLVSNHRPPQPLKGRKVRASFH
UniProt P00915, 2-261 limits assumed: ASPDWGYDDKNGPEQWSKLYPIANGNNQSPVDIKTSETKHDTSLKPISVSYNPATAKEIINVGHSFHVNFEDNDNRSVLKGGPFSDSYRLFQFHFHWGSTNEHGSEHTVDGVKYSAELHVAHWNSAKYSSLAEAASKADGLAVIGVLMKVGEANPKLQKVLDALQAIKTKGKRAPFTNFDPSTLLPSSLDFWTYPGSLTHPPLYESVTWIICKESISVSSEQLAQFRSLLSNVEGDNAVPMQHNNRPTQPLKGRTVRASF
UniProt O43570, 25-354 limits assumed: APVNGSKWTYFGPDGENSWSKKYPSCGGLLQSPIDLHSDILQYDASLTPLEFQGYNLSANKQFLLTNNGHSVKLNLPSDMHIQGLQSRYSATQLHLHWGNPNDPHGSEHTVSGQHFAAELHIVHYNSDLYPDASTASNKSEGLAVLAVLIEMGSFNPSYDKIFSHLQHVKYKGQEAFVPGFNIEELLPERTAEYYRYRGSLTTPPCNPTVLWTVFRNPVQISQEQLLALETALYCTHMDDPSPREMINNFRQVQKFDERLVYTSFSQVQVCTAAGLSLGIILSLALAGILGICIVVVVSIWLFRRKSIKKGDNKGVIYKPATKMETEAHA
UniProt P22748, 19-284 limits assumed: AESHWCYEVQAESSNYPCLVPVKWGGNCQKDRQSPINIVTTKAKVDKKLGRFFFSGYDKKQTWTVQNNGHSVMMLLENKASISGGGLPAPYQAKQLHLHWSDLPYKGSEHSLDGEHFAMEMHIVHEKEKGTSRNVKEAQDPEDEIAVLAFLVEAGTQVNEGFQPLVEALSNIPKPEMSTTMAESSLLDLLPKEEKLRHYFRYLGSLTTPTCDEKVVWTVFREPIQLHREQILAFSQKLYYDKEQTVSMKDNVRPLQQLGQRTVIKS
UniProt Q9ULX7, 16-337 limits assumed: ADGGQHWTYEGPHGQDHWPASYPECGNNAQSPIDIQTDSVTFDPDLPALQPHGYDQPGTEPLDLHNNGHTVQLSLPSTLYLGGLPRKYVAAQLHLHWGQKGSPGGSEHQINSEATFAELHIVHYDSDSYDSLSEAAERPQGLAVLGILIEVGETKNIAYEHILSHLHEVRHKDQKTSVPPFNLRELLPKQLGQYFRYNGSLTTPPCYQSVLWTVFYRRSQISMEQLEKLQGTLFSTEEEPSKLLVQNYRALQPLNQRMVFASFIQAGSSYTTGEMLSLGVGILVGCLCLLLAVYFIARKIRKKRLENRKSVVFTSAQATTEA
UniProt P35218, 39-305 limits assumed: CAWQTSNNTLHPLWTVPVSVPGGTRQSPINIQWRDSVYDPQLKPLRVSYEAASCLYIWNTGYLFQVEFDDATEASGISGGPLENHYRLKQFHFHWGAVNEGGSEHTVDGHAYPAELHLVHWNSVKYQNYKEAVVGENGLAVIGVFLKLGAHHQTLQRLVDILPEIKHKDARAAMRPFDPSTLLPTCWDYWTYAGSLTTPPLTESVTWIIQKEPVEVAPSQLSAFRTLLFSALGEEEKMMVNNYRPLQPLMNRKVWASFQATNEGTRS
UniProt P41144: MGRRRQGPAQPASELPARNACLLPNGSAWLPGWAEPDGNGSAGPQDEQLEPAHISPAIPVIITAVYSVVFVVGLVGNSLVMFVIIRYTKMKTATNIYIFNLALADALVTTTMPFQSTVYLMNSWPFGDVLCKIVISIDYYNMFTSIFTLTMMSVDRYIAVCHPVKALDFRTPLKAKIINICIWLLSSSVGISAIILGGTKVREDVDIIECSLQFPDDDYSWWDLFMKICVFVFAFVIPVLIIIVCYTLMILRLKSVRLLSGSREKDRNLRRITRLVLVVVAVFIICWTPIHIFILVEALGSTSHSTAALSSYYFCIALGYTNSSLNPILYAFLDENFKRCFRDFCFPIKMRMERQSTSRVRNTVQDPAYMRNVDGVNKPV

Consider `Cc1ccc(NC2CCN(CCc3ccc(S(N)(=O)=O)cc3)CC2)cc1`, for which the Ki on Carbonic anhydrase 9 amounted to 45.3 nM; at Carbonic anhydrase 7, 26.2 nM; on Carbonic anhydrase 13, 711 nM; at Carbonic anhydrase 1 it was 88.4 nM; on Carbonic anhydrase 12 it was 25.8 nM; at Carbonic anhydrase 4, 9650 nM. The Ki at Carbonic anhydrase 14 came out at 59.4 nM; at Carbonic anhydrase 2, 28.3 nM.

In the case of `NC(=O)C1(Nc2ccccc2)CCN(CCc2ccc(S(N)(=O)=O)cc2)CC1`, the Ki at Carbonic anhydrase 9 came out at 28 nM; on Carbonic anhydrase 7, 30.1 nM; on Carbonic anhydrase 13, 3740 nM; on Carbonic anhydrase 12, 24.9 nM; on Carbonic anhydrase 4, 9630 nM; in [1] it was 89.1 nM. Also, the Ki at Carbonic anhydrase 2 is 9.1 nM.

Compound `CN(C(=O)Cc1ccccc1)[C@H]1CC[C@@]2(CCCO2)C[C@@H]1N1CCCC1` gave a Ki in experiment [2] of 0.73 nM.

As for `NS(=O)(=O)c1ccc(CCN2CCC(Nc3ccc4ccccc4c3)CC2)cc1`, the Ki at Carbonic anhydrase 7 was determined as 43.5 nM; at Carbonic anhydrase 13 it was 8820 nM; on Carbonic anhydrase 1, 98.5 nM; at Carbonic anhydrase 12, 26 nM; in [1] it was 88.8 nM; on Carbonic anhydrase 2 it was 9.8 nM.

Take `N#CC1(Nc2ccc3ccccc3c2)CCN(CCc2ccc(S(N)(=O)=O)cc2)CC1`: the Ki came out at 44.1 nM at Carbonic anhydrase 9; 2240 nM at Carbonic anhydrase 13; 378 nM at Carbonic anhydrase 1; 165 nM at Carbonic anhydrase 12; 9580 nM on Carbonic anhydrase 4; 82.2 nM at Carbonic anhydrase 14. The Ki in [1] stood at 260 nM; at Carbonic anhydrase 2 it was 50.4 nM.

Turning to `NS(=O)(=O)c1ccc(C(=O)NCC2(Nc3ccccc3)CCN(CCc3ccccc3)CC2)cc1`, the Ki at Carbonic anhydrase 14 is 81.7 nM.

For the compound `NS(=O)(=O)c1ccc(NC(=O)NCC2(Nc3ccccc3)CCN(CCc3ccccc3)CC2)cc1`, the Ki on Carbonic anhydrase 9 worked out at 37.2 nM; at Carbonic anhydrase 4, 9310 nM.
